Data published in patent US12150995B2, “IRAK degraders and uses thereof” (Kymera Therapeutics, Inc., priority 2020, dated 2024).

Amino acid sequences for entries named in this document (tags omitted).
UniProt Q9NWZ3, whole entry: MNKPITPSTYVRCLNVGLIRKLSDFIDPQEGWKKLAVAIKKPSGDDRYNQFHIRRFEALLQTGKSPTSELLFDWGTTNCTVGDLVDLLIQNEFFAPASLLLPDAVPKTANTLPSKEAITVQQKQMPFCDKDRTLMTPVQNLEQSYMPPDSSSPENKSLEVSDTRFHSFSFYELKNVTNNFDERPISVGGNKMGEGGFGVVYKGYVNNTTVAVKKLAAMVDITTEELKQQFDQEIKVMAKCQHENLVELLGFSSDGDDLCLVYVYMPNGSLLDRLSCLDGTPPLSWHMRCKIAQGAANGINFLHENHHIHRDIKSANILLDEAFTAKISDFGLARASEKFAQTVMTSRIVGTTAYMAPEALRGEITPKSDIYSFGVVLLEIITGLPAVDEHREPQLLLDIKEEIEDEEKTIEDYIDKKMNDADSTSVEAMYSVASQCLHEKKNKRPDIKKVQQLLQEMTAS

Each compound was assayed against IRAK4 (Homo sapiens, UniProt Q9NWZ3) (assay: IRAK4 MSD Degradation in OCI-LY10). Conditions: read-out: IRAK4 degradation in OCI-LY10: DC50; OCI-LY10 cells, Meso Scale Discovery, incubated 4 to 24 hours.
Method: Degradation of IRAK4 in OCI-LY10 was quantitatively measured using Meso Scale Discovery technology. OCI-LY10 cells were seeded in 96-well plates (Corning 3799) with a density of 300,000 cells per well in 100 μL fresh media. Compounds were then added to the assay plates with a final top concentration of 1 to 10 μM in a 1:3 dilution series with total of 8 doses. The assay plates were then incubated for 4 to 24 hours at 37° C. under 5% CO2. The assay plates were then centrifuged for 5 minutes and the cell pellets were treated with 100 μL/well RIPA lysis buffer (Boston BioProducts BP-115D) with proteinase inhibitors. To prepare MSD assay plates (Meso Scale Discovery Catalog number L15XA-3), the plates were coated with 2 μg/mL capture antibody (mouse Anti-IRAK4 antibody [2H9], ab119942) in PBS, at 40 μL/well. The plates were then incubated overnight at 4° C., washed 3 times with 150 μL/well TBST buffer (Cell Signaling Technology, Catalog number 9997S) and blocked with 150 μL/well blocking buffer (Meso Scale Discovery Catalog number R93BA-4). Cell lysates were then added to MSD assay plates and the plates were incubated at room temperature for 1 hour. The plates were then washed 3 times with 150 μL/well TBST buffer and […] primary detection antibody (rabbit Anti-IRAK4 antibody [Y279], from Abcam. Catalog number ab32511, 1 μg/mL). The assay plates were then incubated at room temperature for 1 hour, washed 3 times with 150 μL/well TBST buffer and 254/well secondary detection antibody, SULFO-TAG anti-rabbit antibody were added (anti rabbit antibody from Meso Scale Discovery, Catalog number R32AB-1, 1 μg/mL). The assay plates were then incubated at room temperature for 1 hour, washed 3 times with 150 μL/well TBST buffer, and 150 μL/well MSD reading buffer (Meso Scale Discovery catalog number R92TC-2) was added. The plates were then analyzed by a MSD reader (Meso Scale Discovery, Model Quick Plex SQ 120). The data was then analyzed by software Prism 7.0 from GraphPad and the dose-depended IRAK4 degradation were fit using a three-parameter logistic equation to calculate DC50.
The letter codes for IRAK4 DC50 include: A (<0.01 μM); B (0.01-0.05 μM); C (0.05-0.1 μM); D (0.1-0.2 μM); and E (>0.2 μM).

| Compound | DC50 [nM] |
| --- | --- |
| COc1cc2nn([C@H]3CC[C@H](CN(C)[C@H]4CC[C@H](c5cccc6c5n(C)c(=O)n6C5CCC(=O)NC5=O)CC4)CC3)cc2cc1NC(=O)c1cnnc(C(F)(F)F)c1 (some centres unmarked) | > 200 |
| CC(C)Nc1c(C(=O)N[C@H]2CC[C@H](CN3CCC(c4cccc5c(N6CCC(=O)NC6=O)cncc45)CC3)CC2)cnc2c1Oc1cc(C#N)ccc1O2 (relative stereo) | 10 to 50 |
| COc1ccc2c(c1C1CCN(C[C@H]3CC[C@H](n4cc5cc(NC(=O)c6cccc(C(F)(F)F)n6)ncc5n4)CC3)CC1)n(C)c(=O)n2[C@H]1CCC(=O)NC1=O | < 10 |
| CC(C)(O)c1cc2nn([C@H]3CC[C@H](CN4C[C@@H]5C[C@H]4CN5c4cccc5c(N6CCC(=O)NC6=O)cncc45)CC3)cc2cc1NC(=O)c1cccc(C(F)(F)F)n1 | < 10 |
| COc1cc2nn([C@H]3CC[C@H](CN4C[C@@H]5C[C@H]4CN5c4cccc5c(N6CCC(=O)NC6=O)cncc45)CC3)cc2cc1NC(=O)c1cccc(C(F)(F)F)n1 | 10 to 50 |
| Cn1c(=O)n(C2CCC(=O)NC2=O)c2cccc(N3CCN(C[C@H]4CC[C@H](n5cc6cc(NC(=O)c7cccc(C(F)(F)F)n7)c(N7CCOCC7)cc6n5)CC4)CC3)c21 (some centres unmarked) | 10 to 50 |
| Cc1cc2nn([C@H]3CC[C@H](CN4CCN(c5cccc6c5n(C)c(=O)n6C5CCC(=O)NC5=O)CC4C)CC3)cc2cc1NC(=O)c1cccc(C(F)(F)F)n1 (some centres unmarked) | 10 to 50 |
| COc1cc2c(cc1NC(=O)c1cccc(C(F)(F)F)n1)CN([C@H]1CC[C@H](CN3CCC(c4cccc5c4n(C)c(=O)n5C4CCC(=O)NC4=O)CC3)CC1)C2=O (some centres unmarked) | < 10 |
| Cc1cc2nn(C3CCC(CN4CC5CCC(C4)N5c4cccc5c4n(C)c(=O)n5C4CCC(=O)NC4=O)CC3)cc2cc1NC(=O)c1cccc(C(F)(F)F)n1 (centres unmarked) | 100 to 200 |
| COc1ccc2c(c1N1CCN(C[C@H]3CC[C@H](n4cc5cc(NC(=O)c6cccc(C(F)(F)F)n6)ncc5n4)CC3)CC1)n(C)c(=O)n2C1CCC(=O)NC1=O (some centres unmarked) | < 10 |
| COc1cc2nn([C@H]3CC[C@H](CN(C)C4CCN(c5cccc6c5n(C)c(=O)n6C5CCC(=O)NC5=O)CC4)CC3)cc2cc1NC(=O)n1ccc2cc(C#N)cnc21 (some centres unmarked) | 10 to 50 |
